Assay: Pharmacokinetics/biodistribution of [14C]-tagged doxorubicin and vectorized doxorubicin in plasma and organs after intravenous injection in mice;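 further: radioactivity counted in plasma and organs of mice killed 1 to 60 min post-dose, converted to percentage of product per organ, five animals per time point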
Details: i.v., 1 mg/kg doxorubicin equivalent; for Percentage of product in Brain after intravenous injection / Percentage of product in Heart after intravenous injection / Percentage of product in Kidneys after intravenous injection / Percentage of product in Liver after intravenous injection / Percentage of product in Lungs after intravenous injection / Percentage of product in Plasma after intravenous injection: 14C radioactivity; for biodistribution in the lungs of doxorubicin coupled with the peptide vector, compared with free doxorubicin: result in words

Row | Substance | Percentage of product in Brain after intravenous injection (time 1 minute) [%] | Percentage of product in Heart after intravenous injection (time 1 minute) [%] | Percentage of product in Kidneys after intravenous injection (time 1 minute) [%] | Percentage of product in Liver after intravenous injection (time 1 minute) [%] | Percentage of product in Lungs after intravenous injection (time 1 minute) [%] | Percentage of product in Plasma after intravenous injection (time 1 minute) [%] | Percentage of product in Brain after intravenous injection (time 5 minutes) [%] | Percentage of product in Heart after intravenous injection (time 5 minutes) [%] | Percentage of product in Kidneys after intravenous injection (time 5 minutes) [%] | Percentage of product in Liver after intravenous injection (time 5 minutes) [%] | Percentage of product in Lungs after intravenous injection (time 5 minutes) [%] | Percentage of product in Plasma after intravenous injection (time 5 minutes) [%] | Percentage of product in Brain after intravenous injection (time 15 minutes) [%] | Percentage of product in Heart after intravenous injection (time 15 minutes) [%] | Percentage of product in Kidneys after intravenous injection (time 15 minutes) [%] | Percentage of product in Liver after intravenous injection (time 15 minutes) [%] | Percentage of product in Lungs after intravenous injection (time 15 minutes) [%] | Percentage of product in Plasma after intravenous injection (time 15 minutes) [%] | Percentage of product in Brain after intravenous injection (time 30 minutes) [%] | Percentage of product in Heart after intravenous injection (time 30 minutes) [%] | further results
1 | AWSFRVSYRGISYRRSR-succ-dox [compound 2] | 0.07 | 0.47 | 2.3 | 18.4 | 33.3 | 1.07 | 0.05 | 0.41 | 2.0 | 25.7 | 46.9 | 0.7 | 0.04 | 0.33 | 1.3 | 35.7 | 16.0 | 0.32 | 0.04 | 0.26 | Percentage of product in Kidneys after intravenous injection (time 30 minutes): 1.0%; Percentage of product in Liver after intravenous injection (time 30 minutes): 35.1%; Percentage of product in Lungs after intravenous injection (time 30 minutes): 11.0%; Percentage of product in Plasma after intravenous injection (time 30 minutes): 0.19%; Percentage of product in Brain after intravenous injection (time 60 minutes): 0.04%; Percentage of product in Heart after intravenous injection (time 60 minutes): 0.35%; Percentage of product in Kidneys after intravenous injection (time 60 minutes): 1.1%; Percentage of product in Liver after intravenous injection (time 60 minutes): 37.2%; Percentage of product in Lungs after intravenous injection (time 60 minutes): 16.4%; Percentage of product in Plasma after intravenous injection (time 60 minutes): 0.12%; biodistribution in the lungs of doxorubicin coupled with the peptide vector, compared with free doxorubicin: significantly improves
2 | RGGRLSYS-Cit-Cit-Cit-FSTSTGR-succ-dox [compound 3] | 0.20 | 0.50 | 2.6 | 10.9 | 60.0 | 1.60 | 0.08 | 0.24 | 2.2 | 16.1 | 68.5 | 0.80 | 0.07 | 0.15 | 2.1 | 15.7 | 46.6 | 0.46 | 0.06 | 0.15 | Percentage of product in Kidneys after intravenous injection (time 30 minutes): 1.8%; Percentage of product in Liver after intravenous injection (time 30 minutes): 21.8%; Percentage of product in Lungs after intravenous injection (time 30 minutes): 50.6%; Percentage of product in Plasma after intravenous injection (time 30 minutes): 0.35%; Percentage of product in Brain after intravenous injection (time 60 minutes): 0.07%; Percentage of product in Heart after intravenous injection (time 60 minutes): 0.11%; Percentage of product in Kidneys after intravenous injection (time 60 minutes): 1.8%; Percentage of product in Liver after intravenous injection (time 60 minutes): 23.9%; Percentage of product in Lungs after intravenous injection (time 60 minutes): 38.2%; Percentage of product in Plasma after intravenous injection (time 60 minutes): 0.18%; biodistribution in the lungs of doxorubicin coupled with the peptide vector, compared with free doxorubicin: significantly improves
